Results as given in patent publication US9018162B2, “Methods for rapidly treating severe hypoglycemia” (Xeris Pharmaceuticals, Inc., priority 2013, dated 2015).

Assay: Solubility of freeze-dried glucagon (citrate, pH memory 2.0/3.0) on reconstitution: visual, A630, RP-HPLC
Settings: pH memory 3.0, in H2O

With `CSCC[C@H](NC(=O)[C@H](CC(C)C)NC(=O)[C@H](Cc1c[nH]c2ccccc12)NC(=O)[C@H](CCC(N)=O)NC(=O)[C@@H](NC(=O)[C@H](Cc1ccccc1)NC(=O)[C@H](CC(=O)O)NC(=O)[C@H](CCC(N)=O)NC(=O)[C@H](C)NC(=O)[C@H](CCCN=C(N)N)NC(=O)[C@H](CCCN=C(N)N)NC(=O)[C@H](CO)NC(=O)[C@H](CC(=O)O)NC(=O)[C@H](CC(C)C)NC(=O)[C@H](Cc1ccc(O)cc1)NC(=O)[C@H](CCCCN)NC(=O)[C@H](CO)NC(=O)[C@H](Cc1ccc(O)cc1)NC(=O)[C@H](CC(=O)O)NC(=O)[C@H](CO)NC(=O)[C@@H](NC(=O)[C@H](Cc1ccccc1)NC(=O)[C@@H](NC(=O)CNC(=O)[C@H](CCC(N)=O)NC(=O)[C@H](CO)NC(=O)[C@@H](N)Cc1c[nH]cn1)[C@@H](C)O)[C@@H](C)O)C(C)C)C(=O)N[C@@H](CC(N)=O)C(=O)N[C@H](C(=O)O)[C@@H](C)O` [glucagon] the “concentration at which complete reconstitution was achieved” value was 5000 µg/mL.
